# This is a selection; strong and weak results do not stand in their true shares. Inconclusive results are not listed. Activity calls are given as the source filed them. Calls come from the whole dose curve; as a rule, active = well fitted cell-killing curve with a large enough effect; inconclusive = small, poorly fitted or top-dose-only effect; inactive = no such curve, though single readings can be large or run the other way.
# Experiment: qHTS Screen for Compounds that Selectively Target Cancer Cells with p53 Mutations: Cytotoxicity of p53 Null Cells at the Nonpermissive Temperature;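 note: 0% = DMSO only and -100% = full killing by 100 µM tamoxifen; nearly all actives have a fitted effect of over 50% in size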
# Details: H1299 p53-null (neo) cells, 39C, ATPlite viability, 24 h; at 46.1 µM (top of the series) unless noted
# Source text: NIH Chemical Genomics Center [NCGC] NIH Molecular Libraries Screening Centers Network [MLSCN] MLSCN Grant: 1 X01 MH079844-01 Assay Submitter (PI): Dr. SUN, YI, University of Michigan NCGC Assay Overview: Synthetic Lethal Screen for Compounds to Kill Cancer Cells with p53 Mutation. Tumor suppressor gene p53 serves as a major cellular barrier against tumorigenesis. […] The goal of this screening is to identify small molecule probes that selectively kill cancer cells with mutations in p53. This screening was carried out using two lines of H1299 lung cancer cells. The H1299-p53 A138V line express a temperature sensitive p53 mutant (p53ts) in which the mutant p53 protein (A138V) is in the mutant confirmation when grown at 39C (the nonpermissive temperature) and in the wild type conformation when grown at 32C (the permissive temperature). A H1299-neo line (p53 null) grown at both 39C and 32C were used as counter-screens to filter out false positive associated with temperature shifting. The small molecular compounds that selectively target mutant p53-containing cancer cells were selected as candidate probes for further study. A cytotoxicity assay based on the measurement of ATP contents in cells was used in this screen. Concentration-responses of all the compounds in the library collection were determined in qHTS using the cell lines and temperature conditions as above.
# NCGC Assay Protocol Summary: Both the H1299-p53A138V and H1299-neo cell lines were provided by Dr.Yi Sun, a PI at the University Michigan. The cells were maintained and cultured at 37C. The resuspended frozen cells were used to plate the cells in the 1536-well assay plates at a density of 600 cells per well in 5 ul medium. The assay plates with the cells were incubated at 37C for 16 to 30 hours before the experiments. The library compounds in DMSO solution were added to the cells in assay plates and incubated 24 hours at 39C (for mutant p53 conformation) or 32C (for normal p53 conformation as control). An ATP_lite assay kit (PerkinElmer) was used to determine the cell viability. Tomaxifen (100uM) was used as the positive control for cell killing. Data were normalized to the controls for basal activity (DMSO only) and 100% killing (100uM tamoxifen). AC50 values were determined from concentration-response data modeled with the standard Hill equation. P53 assay protocol: 1. Reagent; 5 uL H1299-p53A138V or H1299-neo cell cells/well 2. Time; overnight; 37C incubation 3. Compounds; 23 nL; 5.9 nM to 46 uM 4. Controls; 23 nL; Tamoxifen 100 uM 5. Time; 24 hr; 39C incubation 6. Reagent; 3 uL; ATP_Lite reagent 7. Time; 20 min; Room Temperature 8. Detection; Luminescence; Viewlux plate reader Keywords: p53, synthetic lethal, cancer, cell viability, cytotoxicity, H1299 cell line, luminescence, MLSMR, MLSCN, NIH Roadmap, qHTS, NCGC
row,SMILES,"activity, negative = cell killing"
1,CN1CCCC(OC(=O)C(c2ccccc2)c2ccccc2)C1 (centres undefined),inactive: -9.06%
2,Cc1cc(SC(NC(=O)c2ccc(F)cc2)C(Cl)(Cl)Cl)ncn1 (centres undefined),inactive: -0.0252% [at 1.84 µM]
3,CCC(C)N(CC(C)C)C(=S)SC(NC(C)=O)C(Cl)(Cl)Cl (centres undefined),inactive: -24.9%
4,Cc1c2c(nc3ccccc13)SC(C(Cl)Cl)C2 (centres undefined),inactive: 24.2%

# From PubChem BioAssay AID904 (National Center for Advancing Translational Sciences (NCATS), 2007)
